Drawing on patent US20090012179A1, “Use of Tyrphostins to Stimulate Neurite Outgrowth” (priority 2004, published 2009), this text covers ERK activation for 1 molecule.

The assay deals with ERK. Nature of the assay: ERK activation in NS20Y neuroblastoma cells, immunoblotting for dually phosphorylated ERK. It counts as cell-based, mouse. Background: Immunoblotting shows a protein as a band on a membrane.

As to `CCCN1CCC[C@@H]2Cc3n[nH]cc3C[C@H]21` [quinpirole], the ERK activation result is recorded as “stimulated a short-lived ERK activation”.
